The text below walks through data of patent US5773574A, “Polypeptides for promoting cell attachment” (The Scripps Research Institute, priority 1991, dated 1998).

Assay [1] concerns the target GPIIb-IIIa (Homo sapiens (Human)) (UniProt P08514). Briefly: 125I-labelled ligand on GPIIb-IIIa-coated wells; no inhibitor.
The target is the same in assay [2]. As to the kind of experiment: competition with Fn binding to purified immobilized GPIIb-IIIa (FIG. 6); reference: added intact fibronectin.
For assay [3] the target is unchanged. Briefly: 125I-labelled ligand on GPIIb-IIIa-coated wells; inhibitor Mab 16.12.
Assay [4] shares this target. Briefly: 125I-labelled ligand on GPIIb-IIIa-coated wells; inhibitor 2 mM EDTA.

Consider “MBP/III8+9 fusion protein (maltose binding protein fused to Fn residues 1255-1456) (from UniProt P0AEX9)”, for which the Counts ×10^-3 (counts ×10^-3) in assay [1] was 124; in assay [3] it was 18; in assay [4], 4. Moreover, the fold less potent than intact fibronectin (weight basis) in assay [2] was found to be 4 fold.

Regarding “maltose binding protein (MBP) alone (from UniProt P0AEX9)”, the Counts ×10^-3 (counts ×10^-3) in assay [1] was 15; in assay [3] it was 9; in assay [4] it was -4.
